Laboratory results taken from patent publication US4876269A (priority 1987, dated 1989).

Columns and labels:
[1] = phenylquinone writhing test (PQW), analgesic activity in mice; format: in vivo, male white mice (CF1); settings: fasted male CF1 mice, phenylquinone i.p.
kappa receptor [2] = settings: rats; literature; cited from earlier work
[3] = mice; general statement/literature; cited from earlier work
k receptor = settings: literature; cited from earlier work
kappa receptor [4] = experiment: kappa agonist-induced diuresis in rats; settings: for mean cumulative urine output at 5 hours: N = 5 rats/dose; for % increase over control (urine output): at 5 hours

SMILES | ED50 (effective analgesic dose in 50% of the mice), p.o. [1] | ED50 (effective analgesic dose in 50% of the mice), s.c. [1] | further results
CCC(=O)Oc1cccc2c1CC[C@@H](N1CCCC1)[C@@H]2N(C)C(=O)Cc1ccc(Cl)c(Cl)c1.Cl (relative stereo) | 10. mg/kg | 0.24 mg/kg | 
CN(C(=O)Cc1ccc(Cl)c(Cl)c1)[C@@H]1CCCC[C@H]1N1CCCC1 (relative stereo) | 13. mg/kg | 1.2 mg/kg | increase in urine flow, in words (kappa receptor [2]): significant increases in urine flow; sedation [3]: sedation is characteristic; analgesia, in words (k receptor): analgesic actions in a variety of assays, such as thermal, pressure and irritant; mean cumulative urine output at 5 hours (kappa receptor [4]; 0.063 mg/kg s.c.): 3.48 mL; % increase over control (urine output) (kappa receptor [4]; 0.063 mg/kg s.c.): 43%; mean cumulative urine output at 5 hours (kappa receptor [4]; 0.25 mg/kg s.c.): 2.84 mL; % increase over control (urine output) (kappa receptor [4]; 0.25 mg/kg s.c.): 16%; mean cumulative urine output at 5 hours (kappa receptor [4]; 1. mg/kg s.c.): 5.44 mL; mean cumulative urine output at 5 hours (kappa receptor [4]; 4. mg/kg s.c.): 10.5 mL; mean cumulative urine output at 5 hours (kappa receptor [4]; 16. mg/kg s.c.): 13.6 mL
CN(C(=O)Cc1ccc(Cl)c(Cl)c1)[C@@H]1Cc2ccccc2C[C@H]1N1CCCC1 (relative stereo) | > 81. mg/kg | 47. mg/kg | 
CN(C(=O)Cc1ccc(Cl)c(Cl)c1)[C@@H]1c2cc(O)c(O)cc2CC[C@H]1N1CCCC1.Cl (relative stereo) | 3.3 mg/kg | 0.19 mg/kg | 
CN(C(=O)Cc1ccc(Cl)c(Cl)c1)[C@@H]1c2cc(O)ccc2CC[C@H]1N1CCCC1 (relative stereo) | 16. mg/kg | 0.46 mg/kg | 
CN(C(=O)Cc1ccc(Cl)c(Cl)c1)[C@@H]1c2ccc(O)cc2CC[C@H]1N1CCCC1 (relative stereo) | 4.2 mg/kg | 0.032 mg/kg | 
CN(C(=O)Cc1ccc(Cl)c(Cl)c1)[C@@H]1c2cccc(O)c2CC[C@H]1N1CCCC1.Cl (relative stereo) | 13. mg/kg | 0.72 mg/kg | 
CN(C(=O)Cc1ccc(Cl)c(Cl)c1)[C@@H]1c2ccccc2CC[C@H]1N1CCCC1.Cl (relative stereo) | 13. mg/kg | 2.7 mg/kg | mean cumulative urine output at 5 hours (kappa receptor [4]; 0.33 mg/kg s.c.): 0.96 mL; % increase over control (urine output) (kappa receptor [4]; 0.33 mg/kg s.c.): -31%; mean cumulative urine output at 5 hours (kappa receptor [4]; 1. mg/kg s.c.): 2.24 mL; mean cumulative urine output at 5 hours (kappa receptor [4]; 3. mg/kg s.c.): 3.08 mL; mean cumulative urine output at 5 hours (kappa receptor [4]; 9. mg/kg s.c.): 6.36 mL; mean cumulative urine output at 5 hours (kappa receptor [4]; 27. mg/kg s.c.): 8.56 mL
CN(C(=O)Cc1ccc(Cl)c(Cl)c1)[C@@H]1c2ccccc2C[C@H]1N1CCCC1 (relative stereo) | 30. mg/kg | 1.5 mg/kg | 
CN(C(=O)c1ccc(Cl)c(Cl)c1)[C@@H]1Cc2ccccc2C[C@H]1N1CCCC1 (relative stereo) | 47. mg/kg | 16. mg/kg | 
COc1ccc(OC)c2c1CC[C@@H](N1CCCC1)[C@@H]2N(C)C(=O)Cc1ccc(Cl)c(Cl)c1 (relative stereo) | 24. mg/kg | 47. mg/kg | 
COc1ccc2c(c1)CC[C@@H](N1CCCC1)[C@@H]2N(C)C(=O)Cc1ccc(Cl)c(Cl)c1.Cl (relative stereo) | 6.5 mg/kg | 1.5 mg/kg | 
COc1ccc2c(c1OC)CC[C@@H](N1CCCC1)[C@@H]2N(C)C(=O)Cc1ccc(Cl)c(Cl)c1 (relative stereo) | 16. mg/kg | 8.1 mg/kg | 
COc1cccc2c1CC[C@@H](N1CCCC1)[C@@H]2N(C)C(=O)Cc1ccc(Cl)c(Cl)c1 (relative stereo) | 7.4 mg/kg | 0.33 mg/kg | 
COc1cccc2c1CC[C@@H](N1CCCC1)[C@@H]2N(C)C(=O)Cc1ccc(Cl)c(Cl)c1.Cl (relative stereo) | 6.5 mg/kg | 0.46 mg/kg | mean cumulative urine output at 5 hours (kappa receptor [4]; 0.063 mg/kg s.c.): 1.20 mL; % increase over control (urine output) (kappa receptor [4]; 0.063 mg/kg s.c.): 50%; mean cumulative urine output at 5 hours (kappa receptor [4]; 0.25 mg/kg s.c.): 3.44 mL; % increase over control (urine output) (kappa receptor [4]; 0.25 mg/kg s.c.): 330%; mean cumulative urine output at 5 hours (kappa receptor [4]; 1. mg/kg s.c.): 8.76 mL; mean cumulative urine output at 5 hours (kappa receptor [4]; 4. mg/kg s.c.): 10.9 mL; mean cumulative urine output at 5 hours (kappa receptor [4]; 16. mg/kg s.c.): 8.64 mL
COc1cccc2c1CC[C@@H](N1CCCC1)[C@@H]2N(C)C(=O)Cc1cccc2sccc12 (relative stereo) | 16. mg/kg | 0.46 mg/kg | 
COc1cccc2c1CC[C@@H](N1CCCC1)[C@@H]2N(C)C(=O)Cc1ccc(Cl)c(Cl)c1 (single isomer, unassigned) | 5.2 mg/kg | 0.15 mg/kg | 
